scFv variants of Ab-14 (heavy chain) against a SARS-CoV-2 spike peptide

Antigen: PDVDLGDISGINAS, a 14-residue peptide of the SARS-CoV-2 spike HR2 region.

The variants keep the light chain, the linker and the frameworks of Ab-14 (scFv order VH, a (GGGGS)3 linker, VL).
VH: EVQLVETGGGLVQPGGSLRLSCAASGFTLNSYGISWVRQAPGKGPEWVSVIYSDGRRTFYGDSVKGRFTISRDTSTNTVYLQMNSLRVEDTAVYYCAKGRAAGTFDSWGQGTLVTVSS
VL: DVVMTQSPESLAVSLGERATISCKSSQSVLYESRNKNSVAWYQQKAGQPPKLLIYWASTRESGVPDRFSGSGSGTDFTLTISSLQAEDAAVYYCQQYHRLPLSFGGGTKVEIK

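The starting antibody came from a phage panning campaign against this peptide. These sequences belong to a second round, designed from the earlier measurements on random variants of the parent. Group labels follow the data file (Rand: our label for a block that the file lists under HC and that is probably the random mutants of the ten best first-round binders; En: ensemble of fine-tuned language models; HC: hill climbing; Gen: genetic algorithm; Gibbs: Gibbs sampling; a sequence that several methods proposed may carry one label only). The assay is AlphaSeq: two haploid yeast populations carry antibody and antigen on their surface. After mating in shaken culture at 30 °C for 16 h, diploids were selected and their barcode pairs sequenced. The ratio of observed to expected reads was calibrated, replicate by replicate, on BCL2-family standards whose Kd was known from biolayer interferometry. There are six technical replicates.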

The parent's heavy chain CDRs are GFTLNSYGIS, VIYSDGRRTFYGDSVK, GRAAGTFDS; each variant's own CDRs replace them letter for letter.
Variants here have more than six changes.
Kd is apparent (estimated from mating counts) and averaged on the log scale over replicates with a signal. Smaller is tighter.
"no signal" means that the variant was in the library but no mating with the target was seen in any replicate; the authors take this as a sign of poor binding, and no number exists.
Background: pairings of all heavy chain designs with three empty control strains gave a value in 1% of cases (median 120 nM, 5th percentile 7.0 nM). Values in that range, when seen in few replicates, are hard to tell from nonspecific mating.
In the paper, a design with two or fewer of six values counts as a poor binder.
Values of this round are not directly comparable with the first-round values of the same sequences.

For GKDLEEYGIS | VIYADGRRSAYTDNVK | GHAGNIFMS [En_Gibbs], the assay gave 160 nM (1 of 6 replicates).
For GFDLNEYGIS | VIYADGMRTAYSDSVK | GNTAGTFDQ [En_Gen], the assay gave 160 pM (6 of 6 replicates).
For GFDLDEYGIS | VIYADGMRTFYADSVK | GGNAGTFDV [En_Gen], the assay gave 350 pM (6 of 6 replicates).
For GFQIDEYGIS | VIYADGLRTAYSDAVK | GMDTGLFMD [En_Gibbs], the assay gave no signal (0 of 6 replicates).
For GQDIEEYGIS | VIYADGMRTVYSDSVK | SGRTVNIDV [En_Gibbs], the assay gave no signal (0 of 6 replicates).
For GFDLNEYGIS | VIYADGRRTAYADSVK | GQVAGTFDT [En_Gen], the assay gave 290 pM (6 of 6 replicates).
For GFDLNEYGIS | VIYADGKRTAYVDSVK | GNTAGTFDQ [En_Gen], the assay gave 40 pM (6 of 6 replicates).
For GFQLDEYGIS | VIYADGERTMYSNDVK | GTEGGTFQM [En_Gibbs], the assay gave 43 nM (4 of 6 replicates).
For GFDLDEYGIS | VIYADGRRTAYADDVK | GENAGTFDQ [En_Gen], the assay gave 500 pM (6 of 6 replicates).
For GESLEEYGIS | VIYADGIREQYVDDVK | GEQGGYFVT [En_Gibbs], the assay gave no signal (0 of 6 replicates).
For GFDLNEYGIS | VIYADGRRTFYTDSVK | GTTAGTFDV [En_HC], the assay gave 850 pM (6 of 6 replicates).
For GFGLSEYGIS | VIYADGMRTSYDNSIK | GALAGTFDE [En_Gibbs], the assay gave no signal (0 of 6 replicates).
For GEDLMEYGIS | VIYADGRRFSYIDDVK | GNSTGFLDV [En_Gibbs], the assay gave no signal (0 of 6 replicates).
For GFGLLEYGIS | VIYADGMRLSYAENVK | GQEGQLFDL [En_Gibbs], the assay gave no signal (0 of 6 replicates).
For GFDLEDYGIS | VIYADGMRTAYADSVK | GEVAGTFDV [En_Gen], the assay gave 550 pM (6 of 6 replicates).
For GFDLMEYGIS | VIYADGKRFSYIDDVK | GYSTGFLTV [En_Gibbs], the assay gave 110 nM (2 of 6 replicates).
For GFDLNEYGIS | VIYADGRRTFYADSVK | GESAGTFDL [En_HC], the assay gave 1.3 nM (6 of 6 replicates).
For GFDLNEYGIS | VIYADGMRTSYKDSVK | GEAAGTFDV [En_HC], the assay gave 1.4 nM (6 of 6 replicates).
For GFELDEYGIS | VIYADGARTAYVDNVK | GDAVGSFHV [En_Gibbs], the assay gave 86 nM (1 of 6 replicates).
For GFDLDEYGIS | VIYADGVRTAYADSVK | GNQAGTFDM [En_Gen], the assay gave 840 pM (6 of 6 replicates).
For GFDLNEYGIS | VIYADGMRTFYADKVK | GNVAGTFDV [En_Gen], the assay gave 260 pM (6 of 6 replicates).
For GFDLDEYGIS | VIYADGVRTAYADNVK | GETAGTFDV [En_Gen], the assay gave 450 pM (6 of 6 replicates).
For GFDLNEYGIS | VIYADGMRTAYADDVK | GTVAGTFDV [En_Gen], the assay gave 130 pM (6 of 6 replicates).
For GFSLDEYGIS | VIYADGIRQHYSDQVK | GVKNGNVIL [En_Gibbs], the assay gave 3.6 nM (1 of 6 replicates).
For GEDIDEYGIS | VIYADGRRTAYSQSVK | GQNGGQIDV [En_Gibbs], the assay gave no signal (0 of 6 replicates).
For GFDIEDYGIS | VIYADGVRAMYKENFK | GQIAGTYLI [En_Gibbs], the assay gave no signal (0 of 6 replicates).
For GFNLNEYGIS | VIYADGMRVRYANNFK | GKLNTTLMV [En_Gibbs], the assay gave 1.9 µM (1 of 6 replicates).
For GFHLDEYGIS | VIYADGMRSQYADNVK | GGIRAYFTQ [En_Gibbs], the assay gave no signal (0 of 6 replicates).
For GFDLNEYGIS | VIYADGRRTFYADSVK | GETAGTFVQ [En_HC], the assay gave 1.1 nM (6 of 6 replicates).
For GFDLDEYGIS | VIYADGMRTAYIDSVK | GNVAGTFDL [En_Gen], the assay gave 430 pM (6 of 6 replicates).
For GFDIDEMGIS | VIYADGVRTAYENKFK | GKNLGLGFV [En_Gibbs], the assay gave no signal (0 of 6 replicates).
For GFDLDEYGIS | VIYADGRRSAYHDSFK | GQLGKVSFV [En_Gibbs], the assay gave no signal (0 of 6 replicates).
For GFDLDEYGIS | VIYADGRRTFYADSVK | GTLAGTFDQ [En_HC], the assay gave 170 pM (6 of 6 replicates).
For GFDLNEYGIS | VIYADGMRTAYADSVK | GEAAGTFDL [En_Gen], the assay gave 550 pM (6 of 6 replicates).
For GFDLMEYGIS | VIYADGVRTAYQDQVK | GEEAGALYT [En_Gibbs], the assay gave no signal (0 of 6 replicates).
For GFTLNEYLIS | VIYSDGRQWFYTDSVK | KRFAGTFDS [Rand], the assay gave no signal (0 of 6 replicates).
For GFDLDEYGIS | VIYADGMRTAYADNVK | GNTAGTFDV [En_Gen], the assay gave 210 pM (6 of 6 replicates).
For GFDLGEYGIS | VIYADGSRSAYATNVK | GGSGYKDDV [En_Gibbs], the assay gave no signal (0 of 6 replicates).
For GFDLNEYGIS | VIYADGRRTFYADSVK | GKIAGTFNL [En_HC], the assay gave 310 pM (6 of 6 replicates).
For GFNLNEYGIS | VIYADGQRTFYADSVK | GEIAGTFDV [En_HC], the assay gave 290 pM (6 of 6 replicates).
For GADIEEYGIS | VIYADGVRKSYVNSFK | GEVGGTFTN [En_Gibbs], the assay gave 190 nM (1 of 6 replicates).
For GFDLNEYGIS | VIYADGQRTAYADNVK | GEVAGTFDL [En_Gen], the assay gave 550 pM (6 of 6 replicates).
For GFDLNEYGIS | VIYADGMRTAYTDSVK | GNTAGTFDT [En_Gen], the assay gave 120 pM (6 of 6 replicates).
For GFDLNEYGIS | VIYADGVRTAYADDVK | GNVAGTFDL [En_Gen], the assay gave 310 pM (6 of 6 replicates).
For GFQLDEVGIS | VIYADGIRRAYASKVK | GGDGASFDL [En_Gibbs], the assay gave 920 nM (1 of 6 replicates).
For GFDLNEYGIS | VIYADGMRTAYTDDVK | GNVAGTFDL [En_Gen], the assay gave 45 nM (5 of 6 replicates).
For GFDLNEYGIS | VIYADGMRTAYSDDVK | GANAGTFDV [En_Gen], the assay gave 380 pM (6 of 6 replicates).
For GFSIDEYGIS | VIYADGVRTAVDPSVK | GQLAAYFDK [En_Gibbs], the assay gave 4.3 nM (6 of 6 replicates).
For GFDLNEYGIS | VIYADGKRTFYIDSVK | GTNAGTFDS [En_HC], the assay gave 390 pM (6 of 6 replicates).
For GFDLNEYGIS | VIYADGMRTFYADSVK | GETAGTFDV [En_Gen], the assay gave 380 pM (6 of 6 replicates).
For GFDLNEYGIS | VIYADGSRTAYADDVK | GENAGTFDV [En_Gen], the assay gave 1.1 nM (6 of 6 replicates).
For GFDLDEYGIS | VIYADGRRTFYADSVK | GELAGTFFM [En_HC], the assay gave 4.2 nM (6 of 6 replicates).

Extract of 3 entries:

CDR-H1,CDR-H2,CDR-H3,group,Kd (apparent),detected
GFDLDEYGIS,VIYADGRRTFYADSVK,GTLAGTFDQ,En_HC,170 pM,6 of 6
GFSLDEYGIS,VIYADGIRQHYSDQVK,GVKNGNVIL,En_Gibbs,3.6 nM,1 of 6
GEDLMEYGIS,VIYADGRRFSYIDDVK,GNSTGFLDV,En_Gibbs,no signal,0 of 6

Reference: Li et al. 2023, doi:10.1038/s41467-023-39022-2. File: FLAb, binding data.